# In US6872541B2, “Method and compositions for analysis of pentraxin receptors as indicators of disease” (Coulter International Corp., priority 2001, dated 2005):
# Tested on: THP-1 cells
# Test: inhibition of the binding of bCRP to THP-1 cells
# Set-up: species or system human
# Settings: non-washed assay; fragment 174-185 at 100 μgs (˜128 M solution), not repeated; other fragments up to 200 μgs
# From the text: Staining proceeded using the previously determined optimal non-washed conditions. […] All other staining conditions were as previously described using bHSA as the control.
substance,measurement,value
"HSA: Human Serum Albumin >99% purity, control inhibitor",inhibition of bCRP binding to THP-1 cells (in words),no inhibition
